# System: HepG2 cells
# Assay: Hepatoprotective effects in vitro against TBH oxidative damage
# Conditions: MTT, TBH challenge
structure (smiles),measurement,value
"CC(C)(C)OO [TBH, Tertiary Butyl Hydro peroxide]",Toxicity (%),47.47%
